Source: patent publication US7482008B1, “Human T cell reactive feline protein (TRFP) isolated from house dust and uses therefor” (Merck Patent GmbH, priority 1989, dated 2009)

Tested on: human IgE (cat allergic patient plasma)
Assay: Direct binding ELISA of human IgE to coated antigen
Conditions: percent of cat allergic patients with positive IgE binding
Experimental: The basic format of these ELISA assays was a direct binding assay wherein the antigen was coated onto the wells of a 96 well microtitre dish and then antibodies in solution are added and assayed for the binding capacity. The protocol for these assays was as follows:
The peptides were conjugated to HSA (human serum albumin) by two different methods based on their chemical structure. […] Both conjugates were filter purified and dialyzed against PBS. In the ELISA assay, the unbound coating antigens were removed and the wells were blocked with 0.5% gelatin in PBS, 200 μl/well for 2 hours at room temperature. The antibody solution was a pool of plasma samples from 20 patients that were skin test positive for commercial cat extract which was serially diluted with PBS-Tween 20 (PBS with 0.05% nonionic detergent Tween-Sigma, St. Louis Mo.) and 100 μl/well was added and incubated overnight at 4° C. (plasma dilutions are tested in duplicate). […] The second antibody (biotinylated goat anti-Human IgE, 1:1000 Kirkegaard & Perry Laboratories Inc. Gaithersburg, Md.), was added at 100 μl/well for one hour at room temperature. […] Plates are read on a Microplate EL 310 Autoreader (Biotek Instruments, Winooski, Vt.) with a 450 nm filter. The absorbance levels of duplicate wells were averaged.

Positive Binding [%] | Substance
0 | Peptide Y/HSA: peptide Y conjugated to HSA through its cysteine residue, sulfo-SMCC
0 | Peptide X/HSA: peptide X conjugated to HSA (human serum albumin), EDC
